The values below are quoted from earlier work in patent publication US8106007B2, “Conjugates of a polypeptide and a pentasaccharide” (N.V. Organon, priority 2005, dated 2012).

The conditions of series [1]: in man; cited from earlier work.
The conditions of series [2]: species not given; cited from earlier work.

As to insulin, the half-life result in series [1] is on record as “about 12 minutes”. In addition, in series [2], the “t ½” value is 12 min.
